Measurements published in PubChem BioAssay AID504580 (NMMLSC, 2011).
The entries are a selection whose mix differs from that of the whole data set. Active and inactive are the calls of the source.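 The calls were made as follows: active = compounds that quench the bead-bound fluorescent RNA probe, cutting fluorescence to under half of the solvent control; inactive = the rest.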

test: bead-bound FAM aptamer signal quenchers – biochemical, single point, cherry pick 1, flow cytometry, artefact control for GRK2 RNA aptamer inhibitor project, confirmation (AID 504580); conditions: Carboxyfluorescein RNA aptamer on beads, flow cytometry quenching; at 10 µM; hits give low values;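 also: counterscreen run without GRK2 so only probe quenching by compound is measured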

| SMILES | fluorescence response (% of DMSO) |
| --- | --- |
| CC(C)(C)OC(=O)N1CCC(N(C(=O)c2ccccc2)c2ccc(Cl)cc2)CC1 | inactive: 99.3% |
